# Bioassay records as filed in PubChem BioAssay.
# This is a sample that favours compounds with a hit; in the whole collection about 1.9% have one here.
# Yeast UUG start = alters start codon recognition fidelity in yeast; S. cerevisiae UUG-firefly luciferase reporter, luminescence/redox ratio; activity score, % at 18.7 µM; actives 0.13% (n = 350,000); AID 602363;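 active = replicate mean at a twofold rise or more, about +100% in these data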;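 also: firefly luciferase made from a UUG start codon reports start codon fidelity; reporter light over untreated wells divided by growth signal over untreated wells; some hits fall short of that in this replicate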
# ARNT-TACC3 inh = disruptors of human ARNT/TACC3 interaction; Q9Y6A5; AlphaScreen His-ARNT PAS-B/GST-TACC3 binding, luminescence; TACC3 fragment carries E629A point mutation; inhibition, % at 9.99 µM; 390,000 compounds, 0.66% hits; AID 623870;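 active means mean inhibition of replicates at least 50% and at least half of replicates each reaching 50%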;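 further: 0% = complete ARNT plus TACC3 wells and 100% = ARNT alone without TACC3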
# PDI inh = PDI (human) enzyme inhibition; PDI insulin aggregation turbidity, A650, 90 min; 350,000 compounds, 0.052% hits; inhibition, % at 10 µM; P07237; AID 588391;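 active means mean inhibition across replicates of 30% or more, whatever share of single replicates reach that level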
# PglD DTNB = blocks C. jejuni PglD acetyltransferase activity; purified PglD enzyme, DTNB colorimetric CoA detection; inhibition, % at 12.5 µM; 360,000 compounds, 0.098% hits; in the data active means inhibition above about 16%, passing the limit was not always enough
# FGF22 binding-1 = binders of recombinant human FGF22 by thermal shift. Q9HCT0. SYPRO orange fluorescence; percent of sucrose octasulfate shift, DMSO zero. activity (Tm shift, normalised), % at 9.99 µM. 340,000 compounds, 1.5% hits. AID 651658;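 active means mean Tm shift, scaled 0 neutral to 100 positive control, at about 1.3% or above, every replicate too, limit read from the data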
# ERp5 inh = blocks human ERp5 reductase activity on insulin. ERp5 insulin aggregation, absorbance 650 nm, 90 min. inhibition, % at 9.99 µM. AID 651711. Q15084. 350,000 compounds, 0.05% hits;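 active means mean replicate inhibition above about 25%, with every replicate also reaching it, limit read from the data, passing the limit was not always enough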
# FGF22 binding-2 = binders of human FGF22 by thermal shift. shares compounds with FGF22 binding-1. recombinant FGF22 thermal shift, SYPRO orange fluorescence. thermal shift activity, °C (ΔTm) at 38 µM. 1,000 compounds, 2% hits;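 active means fitted rise in melting shift crosses a set limit at or below the top valid dose tested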
# FGF22 TSA DP = FGF22 (human) binding by thermal shift; AID 743017; Thermal shift assay, SYPRO orange, melting temperature shift; Tm shift (activity), % at 38 µM; 50 tested, under 10 active; shares compounds with FGF22 binding-1;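 active means compounds whose fitted dose curve of melting temperature shift rises past a set threshold within the tested doses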
# SYPRO no-protein = shows thermal shift signal without protein, FGF22 counter-screen; shares compounds with FGF22 binding-1; compound-only SYPRO orange thermal shift counter-screen, no protein; AC50, µM (series often up to 38 µM); 1,000 compounds, 2% hits; AID 743019;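 active means rising signal whose fitted curve reaches the 0.54 level within the top valid dose, showing a melting point, actives reach about 13 µM in these data; inactive means the rest, including activity in the opposite direction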; further: value is where the raw curve crosses a fixed level and not half-maximal
# The depositor's hits bear a star; i = inactive; . = not tested or not shown; ! = not active in a repeat; [ ] = dose if it differs, or a comment.
SMILES,Yeast UUG start,ARNT-TACC3 inh,PDI inh,PglD DTNB,FGF22 binding-1,ERp5 inh,FGF22 binding-2,SYPRO no-protein,others
OC[C@@H]1[C@@H](c2ccc(-c3ccccc3)cc2)[C@@H]2CN(Cc3ccccn3)CCCCN12,-33,.,.,2,0,6,.,.,
OC[C@@H]1[C@@H](c2ccc(Br)cc2)[C@H]2CN(Cc3cncnc3)CCCCN12,-14,2,.,-2,0,-1,.,.,
Cc1cccc(-c2ccc([C@@H]3[C@H](CO)N4C(=O)CN(C(=O)c5ccccc5)C[C@@H]34)cc2)c1,.,.,.,.,.,-1,.,.,
O=C(c1ccccc1F)N1CC2(C1)[C@@H](c1ccccc1)[C@@H](CO)N2CC1CCCC1,.,.,.,.,.,0,.,.,
COc1ccc(CNC(=O)C[C@H]2C=C[C@@H](NC(=O)c3cccc(F)c3)[C@@H](CO)O2)cc1,10,2,.,2,0,3,.,.,
N#C[C@@H]1[C@@H](c2ccc(C3=CCCCC3)cc2)[C@H](CO)N1S(=O)(=O)c1ccccc1,.,-2,.,2,1.3*,-3,-0.2,i,
N#C[C@@H]1[C@H](c2ccc(C3=CCCCC3)cc2)[C@H](CO)N1S(=O)(=O)c1ccccc1,.,39,.,-2,0,0,.,.,
COc1ccccc1Nc1ccc(Nc2ccccc2OC)nn1,.,9,3,.,.,.,.,.,
COc1ccc(OC)c(Nc2ccc(Nc3cc(OC)ccc3OC)nn2)c1,-12,.,-8,1,1.8*,-1,-0.071,i,
C[C@@H]1CN([C@@H](C)CO)S(=O)(=O)c2ccc(C#Cc3cccc(F)c3)cc2O[C@@H]1CN(C)C,6,4,.,2,-1,4,.,.,
O=[N+]([O-])c1ccc(CSc2nnc(Cc3ccccc3)o2)cc1,.,10,0,.,1.4*,0,0.023,i,
c1ccc(-c2cc3nc(NCc4ccc5c(c4)OCO5)ccn3n2)cc1,-11,.,-12,2,35*,1,0.1,i,
CN(C)CC(=O)Nc1ccc2c(c1)[C@@H]1C[C@H](CC(=O)N(C)C)O[C@@H](CO)[C@@H]1O2,-2,-7,.,-4,2.3*,-3,0.12,i,
O=C(C[C@H]1C[C@H]2c3cc(NC(=O)NC4CCCC4)ccc3O[C@H]2[C@@H](CO)O1)NC1CCCC1,-6,-7,.,-3,0,1,.,.,
CS(=O)(=O)Nc1ccc2c(c1)[C@@H]1C[C@H](CC(=O)NCCc3ccccc3)O[C@@H](CO)[C@@H]1O2,.,2,.,1,1.4*,5,-0.079,i,
O=C(C[C@H]1C[C@@H]2c3cc(NC(=O)NC4CCCC4)ccc3O[C@@H]2[C@H](CO)O1)NC1CCCC1,-11,-8,.,2,1.4*,-5,-0.15,i,
COCC(=O)Nc1ccc2c(c1)[C@H]1C[C@@H](CC(=O)NCc3ccccn3)O[C@H](CO)[C@H]1O2,-19,.,.,3,1.3*,-8,-0.032,i,
COc1ccc(S(=O)(=O)Nc2cccc3c2O[C@@H](CN(C)C(=O)Nc2ccc4c(c2)OCO4)[C@@H](C)CN([C@H](C)CO)C3=O)cc1,19,1,.,-2,0,-6,.,.,
CCCN1[C@H](C(=O)N[C@@H](C)c2ccccc2)[C@@H](CO)[C@@H]2Cn3c(ccc(-c4cccc(F)c4)c3=O)[C@@H]21,.,2,.,6,0,-8,.,.,
COc1cccc(S(=O)(=O)Nc2ccc3c(c2)[C@@H]2C[C@H](CC(=O)NC4CCCCC4)O[C@@H](CO)[C@@H]2O3)c1,.,12,.,-2,1.6*,-1,0.14,i,
O=C(C[C@H]1C[C@H]2c3cc(NC(=O)NC4CCCC4)ccc3O[C@H]2[C@@H](CO)O1)NCCN1CCCCC1,-8,4,.,2,19*,2,-0.01[42 µM],i,
O=C(C[C@H]1C[C@@H]2c3cc(NC(=O)C4CCC4)ccc3O[C@@H]2[C@H](CO)O1)NCc1cc(F)ccc1F,25,.,.,-3,-1,-3,.,.,
O=C(O)C[C@@H]1C[C@H]2c3cc(NC(=O)Nc4ccc(C(F)(F)F)cc4)ccc3O[C@H]2[C@@H](CO)O1,.,3,.,3,23*,-2,-0.17,i,
O=C(C[C@@H]1C[C@H]2c3cc(NC(=O)C4CCC4)ccc3O[C@H]2[C@@H](CO)O1)NCc1cc(F)ccc1F,-6,.,.,-1,28*,-4,-0.028[42 µM],i,
O=C(C[C@@H]1C[C@@H]2c3cc(NC(=O)NC4CCCC4)ccc3O[C@@H]2[C@@H](CO)O1)NCCN1CCCCC1,-6,4,.,-2,0,-2,.,.,

# Reprinted from the part before: 3 compounds, followed by the next part.
SMILES,Yeast UUG start,ARNT-TACC3 inh,PDI inh,PglD DTNB,FGF22 binding-1,ERp5 inh,FGF22 binding-2,SYPRO no-protein,others
O=C(O)C[C@@H]1C[C@H]2c3cc(NC(=O)Nc4ccc(C(F)(F)F)cc4)ccc3O[C@H]2[C@@H](CO)O1,.,3,.,3,23*,-2,-0.17,i,
O=C(C[C@@H]1C[C@H]2c3cc(NC(=O)C4CCC4)ccc3O[C@H]2[C@@H](CO)O1)NCc1cc(F)ccc1F,-6,.,.,-1,28*,-4,-0.028[42 µM],i,
O=C(C[C@@H]1C[C@@H]2c3cc(NC(=O)NC4CCCC4)ccc3O[C@@H]2[C@@H](CO)O1)NCCN1CCCCC1,-6,4,.,-2,0,-2,.,.,
O=S1(=O)N=C(N(Cc2cccs2)c2ccc(O)cc2)c2ccccc21,.,-6,7,.,1.4*,-2,.,i,FGF22 TSA DP=0
Cc1ccccc1S(=O)(=O)NCC[C@H]1CC[C@H](NC(=O)Nc2cccc(F)c2)[C@@H](CO)O1,7,0,.,3,0,-3,.,.,
Cc1ccccc1S(=O)(=O)NCC[C@@H]1CC[C@@H](NC(=O)Nc2cccc(Cl)c2)[C@@H](CO)O1,3,-2,.,7,1.3*,4,-0.071[42 µM],i,
O=C(CCN1CCCCC1)N[C@@H]1CC[C@H](CCNS(=O)(=O)c2ccc(F)cc2)O[C@H]1CO,-3,-8,.,2,1.7*,-8,-0.19,i,
O=C(CCN1CCCCC1)N[C@@H]1CC[C@@H](CCNS(=O)(=O)c2ccc(F)cc2)O[C@H]1CO,-9,-6,.,4,1,-1,.,.,
O=C(Nc1cc(Cl)cc(Cl)c1)N[C@H]1CC[C@H](CCNS(=O)(=O)c2cccc(F)c2)O[C@H]1CO,-6,.,.,-1,0,0,.,.,
O=C(Nc1cc(Cl)cc(Cl)c1)N[C@@H]1CC[C@@H](CCNS(=O)(=O)c2cccc(F)c2)O[C@@H]1CO,6,.,.,2,2.7*!,-5,-0.31[42 µM],i,FGF22 TSA DP=0
COc1cccc(NC(=O)N[C@H]2CC[C@H](CC(=O)N3CCCCC3)O[C@H]2CO)c1,.,-4,.,7,0,4,.,.,
C[C@H](CO)N1C[C@H](C)[C@H](CN(C)C)Oc2c(NC(=O)c3ccncc3)cccc2C1=O,-12,-5,.,-1,0,0,.,.,
COc1ccc(-c2ccc([C@H]3[C@@H](CO)N4CCCCN(C(=O)c5ccc6c(c5)OCO6)C[C@H]34)cc2)cc1,-14,5,.,5,1.3*,-1,0.02,i,
COc1ccc(-c2ccc([C@@H]3[C@@H](CO)N4CCCCN(C(=O)c5ccc(F)cc5)C[C@@H]34)cc2)cc1,0,0,.,16,34*,4,0.089[42 µM],9µM*,

# Random excerpt: 2 records from the list.
SMILES,Yeast UUG start,ARNT-TACC3 inh,PDI inh,PglD DTNB,FGF22 binding-1,ERp5 inh,FGF22 binding-2,SYPRO no-protein,others
O=C(Nc1cc(Cl)cc(Cl)c1)N[C@H]1CC[C@H](CCNS(=O)(=O)c2cccc(F)c2)O[C@H]1CO,-6,.,.,-1,0,0,.,.,
COc1cccc(NC(=O)N[C@H]2CC[C@H](CC(=O)N3CCCCC3)O[C@H]2CO)c1,.,-4,.,7,0,4,.,.,
